## Antibody variant affinities, Ab-95 light chain, assay 2

From the AlphaSeq antibody data of Engelhart et al. 2022 (doi:10.1038/s41597-022-01779-4), copy in the FLAb collection.

All variants were tested on one target, the spike HR2 peptide PDVDLGDISGINAS (SARS-CoV-2).

The variants keep the heavy chain, the linker and the frameworks of Ab-95 (scFv order VH, a 15-residue (Gly4Ser)3 linker, VL).
VH: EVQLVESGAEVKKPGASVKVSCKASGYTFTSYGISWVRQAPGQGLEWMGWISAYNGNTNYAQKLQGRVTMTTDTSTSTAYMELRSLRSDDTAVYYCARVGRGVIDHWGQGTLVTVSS
VL: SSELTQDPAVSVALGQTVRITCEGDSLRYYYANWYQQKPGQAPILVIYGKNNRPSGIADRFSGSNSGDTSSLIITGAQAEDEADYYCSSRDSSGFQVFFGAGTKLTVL

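The starting antibody came from a phage panning campaign against this peptide. AAYL52 was designed without a model: most single CDR substitutions and a random sample of double and triple ones. Affinity was read by AlphaSeq, a pooled yeast mating assay with surface-displayed partners. After mating in shaken culture at 30 °C for 16 h, diploids were selected and their barcode pairs sequenced. Each replicate has its own calibration line, from reference interactions of the BCL2 family. Each pool was mated in three replicate cultures.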

Each variant is given by its three light chain CDRs, as the data file delimits them; those of the parent are EGDSLRYYYAN, GKNNRPS, SSRDSSGFQVF.
Affinities are written as log10 Kd with Kd in nM; a lower number is a better binder.
A mean of the replicates is given; it leaves out those without a signal.
A pair that was not seen in that replicate is written "n.d."; this usually means weak binding, but a binder can also be missed.

{"CDR-L1": "EGGSLRYQYAN", "CDR-L2": "GKMNRPS", "CDR-L3": "SSRDSSGFQVF", "log10 Kd, replicates": "1.83 2.04 1.75", "mean, log10 nM": "1.87", "signal with controls": "3/9 (4.01)"}
{"CDR-L1": "EGDSLRYYYAN", "CDR-L2": "FKNNRPS", "CDR-L3": "VSRDSSGFQNF", "log10 Kd, replicates": "4.57 3.95 n.d.", "mean, log10 nM": "4.26", "signal with controls": "1/9 (3.20)"}
{"CDR-L1": "EGDSLRYYYAN", "CDR-L2": "GKNERSS", "CDR-L3": "SSMDSSGFQVF", "log10 Kd, replicates": "3.89 3.40 2.69", "mean, log10 nM": "3.33", "signal with controls": "3/9 (4.03)"}
{"CDR-L1": "EGDSLRYYEAN", "CDR-L2": "GKNNRPC", "CDR-L3": "SSRDSSGFAVF", "log10 Kd, replicates": "2.04 1.59 1.47", "mean, log10 nM": "1.70", "signal with controls": "2/9 (3.81)"}
{"CDR-L1": "EGDSLRYTYAN", "CDR-L2": "GKNNRPS", "CDR-L3": "PSRDSYGFQVF", "log10 Kd, replicates": "1.56 1.42 1.10", "mean, log10 nM": "1.36", "signal with controls": "5/9 (4.08)"}
{"CDR-L1": "EGDSLRNYYAN", "CDR-L2": "GKNNDPS", "CDR-L3": "SSRDSSIFQVF", "log10 Kd, replicates": "4.91 3.66 3.23", "mean, log10 nM": "3.93", "signal with controls": "2/9 (4.27)"}
{"CDR-L1": "EGDVLRYYYAN", "CDR-L2": "KKNNRPS", "CDR-L3": "SVRDSSGFQVF", "log10 Kd, replicates": "4.12 n.d. n.d.", "mean, log10 nM": "4.12", "signal with controls": "2/9 (4.15)"}
{"CDR-L1": "EGDSLRYYIKN", "CDR-L2": "GKNNRPS", "CDR-L3": "SSRDFSGFQVF", "log10 Kd, replicates": "4.60 3.46 3.95", "mean, log10 nM": "4.00", "signal with controls": "4/9 (4.30)"}
{"CDR-L1": "NGDSLRYYYAG", "CDR-L2": "GKNNRPS", "CDR-L3": "SSNDSSGFQVF", "log10 Kd, replicates": "3.89 4.78 n.d.", "mean, log10 nM": "4.33", "signal with controls": "2/9 (3.96)"}
{"CDR-L1": "EGDSLGYYYAP", "CDR-L2": "GKNNRPS", "CDR-L3": "SSRDPSGFQVF", "log10 Kd, replicates": "n.d. n.d. 4.40", "mean, log10 nM": "4.40", "signal with controls": "1/9 (5.18)"}
{"CDR-L1": "EGDSLRYYYAN", "CDR-L2": "NCNNRPS", "CDR-L3": "SSRDSSGFAVF", "log10 Kd, replicates": "4.18 4.07 4.57", "mean, log10 nM": "4.27", "signal with controls": "6/9 (4.30)"}
{"CDR-L1": "EGDWLRWYYAN", "CDR-L2": "GKNNRPS", "CDR-L3": "SSRHSSGFQVF", "log10 Kd, replicates": "3.56 n.d. n.d.", "mean, log10 nM": "3.56", "signal with controls": "4/9 (3.92)"}
{"CDR-L1": "EGDSLRYYYAN", "CDR-L2": "GKNNRPS", "CDR-L3": "DERDSSGLQVF", "log10 Kd, replicates": "n.d. n.d. n.d.", "mean, log10 nM": "n.d.", "signal with controls": "1/9 (4.55)"}
{"CDR-L1": "EGDSLRYYYAT", "CDR-L2": "GKNNCPS", "CDR-L3": "SSSDSSGFQVF", "log10 Kd, replicates": "n.d. 5.28 3.55", "mean, log10 nM": "4.42", "signal with controls": "4/9 (3.55)"}
{"CDR-L1": "EGDSHRYYYAN", "CDR-L2": "GKNNRPN", "CDR-L3": "WSRDSSGFQVF", "log10 Kd, replicates": "n.d. n.d. n.d.", "mean, log10 nM": "n.d.", "signal with controls": "4/9 (3.63)"}
{"CDR-L1": "EGDDLRYYYAA", "CDR-L2": "GKNNRPS", "CDR-L3": "SSRDSSGFQQF", "log10 Kd, replicates": "4.49 5.47 4.69", "mean, log10 nM": "4.88", "signal with controls": "1/9 (4.09)"}
{"CDR-L1": "EGDSLRYYYAN", "CDR-L2": "GKNNRPS", "CDR-L3": "SSRDHSIFQDF", "log10 Kd, replicates": "3.64 2.38 n.d.", "mean, log10 nM": "3.01", "signal with controls": "5/9 (4.08)"}
{"CDR-L1": "EGDSLRYYTGN", "CDR-L2": "GKNNRPS", "CDR-L3": "SSRDHSGFQVF", "log10 Kd, replicates": "2.76 2.49 n.d.", "mean, log10 nM": "2.63", "signal with controls": "3/9 (4.63)"}
{"CDR-L1": "EGDSLRYYYAI", "CDR-L2": "VKTNRPS", "CDR-L3": "SSRDSSGFQVF", "log10 Kd, replicates": "3.54 n.d. 2.70", "mean, log10 nM": "3.12", "signal with controls": "4/9 (3.64)"}
{"CDR-L1": "EGDSLRYYYAN", "CDR-L2": "RKANRPS", "CDR-L3": "SSRDSSGFQVK", "log10 Kd, replicates": "n.d. n.d. n.d.", "mean, log10 nM": "n.d.", "signal with controls": "1/9 (3.49)"}
{"CDR-L1": "EVDSLRYYNAT", "CDR-L2": "GKNNRPS", "CDR-L3": "SSRDSSGFQVF", "log10 Kd, replicates": "n.d. n.d. 3.08", "mean, log10 nM": "3.08", "signal with controls": "4/9 (4.12)"}
{"CDR-L1": "EIDSLRYYYAN", "CDR-L2": "GKNNRPS", "CDR-L3": "PSRDSSGFQRF", "log10 Kd, replicates": "3.79 n.d. n.d.", "mean, log10 nM": "3.79", "signal with controls": "4/9 (3.17)"}
{"CDR-L1": "EGDKLRYYYDN", "CDR-L2": "GKKNRPS", "CDR-L3": "SSRDSSGFQVF", "log10 Kd, replicates": "5.48 n.d. n.d.", "mean, log10 nM": "5.48", "signal with controls": "1/9 (3.37)"}
{"CDR-L1": "EGDGLRYYYAN", "CDR-L2": "GKNNRPS", "CDR-L3": "SSQDSSGEQVF", "log10 Kd, replicates": "2.38 2.79 1.76", "mean, log10 nM": "2.31", "signal with controls": "4/9 (4.17)"}
{"CDR-L1": "EGDSLRYYYFN", "CDR-L2": "NKNDRPS", "CDR-L3": "SSRDSSGFQVF", "log10 Kd, replicates": "3.20 n.d. 2.76", "mean, log10 nM": "2.98", "signal with controls": "3/9 (4.21)"}
{"CDR-L1": "EGDILRYYYAN", "CDR-L2": "GKNNRPS", "CDR-L3": "SLRDSSGFQVT", "log10 Kd, replicates": "n.d. n.d. n.d.", "mean, log10 nM": "n.d.", "signal with controls": "0/9"}

For reference, 3 entries of the list once more:

{"CDR-L1": "EGDSLGYYYAP", "CDR-L2": "GKNNRPS", "CDR-L3": "SSRDPSGFQVF", "log10 Kd, replicates": "n.d. n.d. 4.40", "mean, log10 nM": "4.40", "signal with controls": "1/9 (5.18)"}
{"CDR-L1": "EGDSLRYYYAN", "CDR-L2": "GKNNRPS", "CDR-L3": "DERDSSGLQVF", "log10 Kd, replicates": "n.d. n.d. n.d.", "mean, log10 nM": "n.d.", "signal with controls": "1/9 (4.55)"}
{"CDR-L1": "EGDSLRYYYFN", "CDR-L2": "NKNDRPS", "CDR-L3": "SSRDSSGFQVF", "log10 Kd, replicates": "3.20 n.d. 2.76", "mean, log10 nM": "2.98", "signal with controls": "3/9 (4.21)"}

Three control strains display no target. For library AAYL52, 28% of the pairings with them gave a signal, with a median of 3.91 and one signal in twenty below 2.90, so weak values seen in few replicates may be background. For each scFv, signals with the empty controls are counted beside the result, with their mean in brackets.
Parent in this assay: reference entry 2.31, copy in this library 2.25.